Like-named read-outs stand apart in the source and are kept apart here.
How the values were obtained:
ORL1 receptor = ORL1 receptor (Homo sapiens, UniProt P41146); test: ORL1 receptor binding assay with 3H-nociceptin/orphanin FQ, membranes of recombinant CHO-ORL1 cells; settings: 3H-nociceptin/orphanin FQ 0.5 nM; for Ki: read-out: ORL1 Ki, CHO-ORL1 membranes; for ORL1 % inhibition [1 μM]: test substance 1 μM
human μ opiate receptor = human μ opiate receptor (Homo sapiens, UniProt P35372); test: μ opiate receptor binding assay, membrane preparation of CHO-K1 cells, [3H]-naloxone (or DAMGO) displacement; settings: for μ % inhibition [1 μM] / μ % inhibition [1 μM] (DA): test substance 1 μmole/l; for μ % inhibition [1 μM]: radioligand [3H]-naloxone; for μ % inhibition [1 μM] (DA): (DA): DAMGO instead of naloxone
[1] = Analgesia investigation in the tail flick test in mice; settings: dose 10 mg/kg
[2] = read-out: μ Ki (DA), (DA): measured using DAMGO instead of naloxone
[3] = read-out: μ Ki, radioligand [3H]-naloxone 1 nmole/l, Cheng-Prusoff

Amino acid sequences for entries named in this document (tags omitted). A change or cut given only in a name is not applied to a line headed by its entry.
UniProt P41146: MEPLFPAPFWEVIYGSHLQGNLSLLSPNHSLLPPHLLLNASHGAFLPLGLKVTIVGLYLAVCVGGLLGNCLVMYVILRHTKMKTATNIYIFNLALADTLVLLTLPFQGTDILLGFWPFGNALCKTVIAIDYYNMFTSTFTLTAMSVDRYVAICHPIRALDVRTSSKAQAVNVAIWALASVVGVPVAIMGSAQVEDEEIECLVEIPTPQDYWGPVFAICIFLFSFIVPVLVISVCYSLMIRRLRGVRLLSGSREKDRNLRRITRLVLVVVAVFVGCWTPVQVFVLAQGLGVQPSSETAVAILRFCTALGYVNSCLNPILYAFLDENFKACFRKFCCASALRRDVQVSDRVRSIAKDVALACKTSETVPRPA
UniProt P35372, whole entry, looked up: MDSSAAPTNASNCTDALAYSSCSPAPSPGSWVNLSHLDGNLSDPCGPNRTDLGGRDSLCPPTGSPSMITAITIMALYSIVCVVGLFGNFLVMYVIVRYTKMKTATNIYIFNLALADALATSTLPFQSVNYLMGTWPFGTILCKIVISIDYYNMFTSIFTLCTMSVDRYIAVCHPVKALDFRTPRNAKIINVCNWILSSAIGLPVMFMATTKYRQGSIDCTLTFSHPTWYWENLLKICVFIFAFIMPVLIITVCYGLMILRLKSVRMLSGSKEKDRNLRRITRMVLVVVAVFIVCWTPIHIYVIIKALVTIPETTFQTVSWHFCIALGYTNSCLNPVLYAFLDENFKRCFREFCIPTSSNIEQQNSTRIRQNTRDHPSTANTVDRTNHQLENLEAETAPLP

Compound	Ki (ORL1 receptor) [nM]	ORL1 % inhibition [1 μM] (ORL1 receptor) [%]	Ki (human μ opiate receptor; [3]) [nM]	further results
CN(C)C1(c2ccccc2)CCC(=CC(=O)N2CC=C(c3c[nH]c4ccccc34)CC2)CC1 (stereo not shown)	39			Ki (human μ opiate receptor; [2]): 31 nM
CN(C)C1(c2ccc(F)cc2)CCC(N2CCC(c3c[nH]c4ccccc34)C2)CC1 (stereo not shown)		10		μ % inhibition [1 μM] (human μ opiate receptor): 66%
CN(C)C1(c2ccccc2)CCC(N2CCCCC2)CC1 (stereo not shown)				μ % inhibition [1 μM] (DA) (human μ opiate receptor): 23%
CN(C)C1(c2ccccc2)CCC(N2CC=C(c3c[nH]c4ccccc34)CC2)CC1 (stereo not shown)	170			μ % inhibition [1 μM] (human μ opiate receptor): 90%
4-(5-chloro-1H-indol-3-yl)-3,6-dihydro-2H-pyridine-1-carboxylic acid-(4-dimethylamino-4-phenylcyclohexylmethyl)-amide [Example 59]	82			Ki (human μ opiate receptor; [2]): 38 nM
CN(C)C1(c2ccc(F)cc2)CCC(=CC(=O)N2CCC(c3c[nH]c4ccccc34)C2)CC1 (stereo not shown)		45	22	
COc1ccc2[nH]cc(C3=CCN(C4CCC(c5ccccc5)(N(C)C)CC4)CC3)c2c1 (stereo not shown)	150			μ % inhibition [1 μM] (human μ opiate receptor): 91%
COc1ccc2[nH]cc(C3=CCN(C(=O)NCC4CCC(c5ccccc5)(N(C)C)CC4)CC3)c2c1 (single isomer, unassigned)	100			Ki (human μ opiate receptor; [2]): 30 nM
CN(C)C1(c2ccccc2)CCC(NC(=O)N2CCCC(c3c[nH]c4ccc(Cl)cc34)C2)CC1 (stereo not shown)		26		μ % inhibition [1 μM] (human μ opiate receptor): 56%
4-(5-chloro-1H-indol-3-yl)-3,6-dihydro-2H-pyridine-1-carboxylic acid-(4-dimethylamino-4-phenylcyclohexylmethyl)-amide [Example 58]	120			Ki (human μ opiate receptor; [2]): 31 nM
CN(C)C1(c2ccccc2)CCC(N2CC=C(c3c[nH]c4ccc(Cl)cc34)CC2)CC1 (stereo not shown)	95			μ % inhibition [1 μM] (human μ opiate receptor): 85%
CN(C)C1(c2ccccc2)CCC(NC(=O)N2CCC(c3c[nH]c4ccc(Cl)cc34)CC2)CC1 (stereo not shown)		59	13	
COc1ccc2[nH]cc(C3=CCN(C(=O)NCC4CCC(c5ccccc5)(N(C)C)CC4)CC3)c2c1 (stereo not shown)		63		μ % inhibition [1 μM] (DA) (human μ opiate receptor): 52%
CN(C)C1(c2ccccc2)CCC(CC(=O)N2CCC(c3c[nH]c4ccccc34)C2)CC1 (stereo not shown)	21		2.2	
4-(5-methoxy-1H-indol-3-yl)piperidine-1-carboxylic acid-(4-dimethylamino-4-phenylcyclohexyl)-amide		39	31	
CN(C)C1(c2ccccc2)CCC(=CC(=O)N2CCCC(c3c[nH]c4ccccc34)C2)CC1 (stereo not shown)	43		7.9	Tail Flick (mice, i.v.) % inhibition [1]: 100%
CN(C)C1(c2ccccc2)CCC(NC(=O)N2CCCC(c3c[nH]c4ccc(Cl)cc34)C2)CC1 (single isomer, unassigned)	33		8.1	
CN(C)C1(c2ccccc2)CCC(=CC(=O)N2CCC(c3c[nH]c4ccccc34)CC2)CC1 (stereo not shown)	95		41	
4-(5-fluoro-1H-indol-3-yl)piperidine-1-carboxylic acid-(4-dimethylamino-4-phenylcyclohexyl)-amide		62	8.3	
CN(C)C1(c2ccccc2)CCC(CC(=O)N2CCCC(c3c[nH]c4ccccc34)C2)CC1 (stereo not shown)	56		3.1	
CN(C)C1(c2ccccc2)CCC(=CC(=O)N2CCC(c3c[nH]c4ccc(Cl)cc34)CC2)CC1 (stereo not shown)	110		21	
CN(C)C1(c2ccc(F)cc2)CCC(N2CCC(c3c[nH]c4ccccc34)C2)CC1 (single isomer, unassigned)	87		22	
CN(C)C1(c2ccccc2)CCC(NC(=O)N2CCC(C3C=Nc4ccc(F)cc43)CC2)CC1 (stereo not shown)		66		
CN(C)C1(c2ccccc2)CCC(NC(=O)N2CCCC(c3c[nH]c4ccc(F)cc34)C2)CC1 (stereo not shown)		34		μ % inhibition [1 μM] (human μ opiate receptor): 57%
COc1ccc2[nH]cc(C3=CCN(C(=O)C=C4CCC(c5ccccc5)(N(C)C)CC4)CC3)c2c1 (stereo not shown)	67			Ki (human μ opiate receptor; [2]): 24 nM
